Values quoted from earlier work in patent US12171782B2 (priority 2020, dated 2024).

Target: PLP of SARS-CoV-2 (Severe acute respiratory syndrome coronavirus 2, UniProt P0DTD1)
Conditions: among 13 antiviral natural compounds and 78 known anti-viral drugs; cited from earlier work

## NC(=O)c1ncn([C@@H]2O[C@H](CO)[C@@H](O)[C@H]2O)n1 [ribavirin]
  binding affinity to PLP core structure: highest binding affinity
